Consider one substance from PMC7156456, “Modulation of virus-induced NF-κB signaling by NEMO coiled coil mimics” (Nature Communications, 2020).

By UniProt entry, the sequences of proteins in these tests, tags left out. Where a name states a change or a piece, a line headed by the entry shows the natural chain unless it says otherwise.
UniProt Q9Y6K9: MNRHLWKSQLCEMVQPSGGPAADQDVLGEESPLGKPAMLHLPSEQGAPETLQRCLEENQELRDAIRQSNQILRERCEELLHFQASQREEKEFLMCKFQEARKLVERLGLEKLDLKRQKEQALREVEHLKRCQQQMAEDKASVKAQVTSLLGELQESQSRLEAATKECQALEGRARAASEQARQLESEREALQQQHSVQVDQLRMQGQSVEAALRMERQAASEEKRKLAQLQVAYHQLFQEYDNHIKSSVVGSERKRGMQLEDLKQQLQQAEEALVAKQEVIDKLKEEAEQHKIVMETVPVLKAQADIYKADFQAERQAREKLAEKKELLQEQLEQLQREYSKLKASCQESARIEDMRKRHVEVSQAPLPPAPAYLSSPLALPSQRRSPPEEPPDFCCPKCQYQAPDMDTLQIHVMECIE

For the experiment, the target named is His-MBP vFLIP (1-178) (Kaposi's sarcoma herpesvirus (KSHV)) (UniProt Q76RF1). Description: AlphaScreen or HTRF. (Alpha assays give light when donor and acceptor beads are brought close together.)

The Ki is a dissociation constant, usually derived from enzyme kinetics or from competition with a known ligand. High values mean weaker binding, low ones tighter binding. The substance “wild-type NEMO coiled coil (non-biotinylated His-NEMO) (from UniProt Q9Y6K9 150-272) (domain or fragment)” gave a Ki of 390 nM.
